Patent publication US20110034487A1, “CXCR3 ANTAGONISTS” (AMGEN INC., priority 2009, published 2011)

Columns and labels:
CXCR3 [1] = biological target: T1, CXCR3 (Homo sapiens, UniProt P49682); experiment: [125I]-IP-10 binding assay (CXCR3 binding)
T1 construct: endogenous in cells
T1 sequence (P49682 1-368): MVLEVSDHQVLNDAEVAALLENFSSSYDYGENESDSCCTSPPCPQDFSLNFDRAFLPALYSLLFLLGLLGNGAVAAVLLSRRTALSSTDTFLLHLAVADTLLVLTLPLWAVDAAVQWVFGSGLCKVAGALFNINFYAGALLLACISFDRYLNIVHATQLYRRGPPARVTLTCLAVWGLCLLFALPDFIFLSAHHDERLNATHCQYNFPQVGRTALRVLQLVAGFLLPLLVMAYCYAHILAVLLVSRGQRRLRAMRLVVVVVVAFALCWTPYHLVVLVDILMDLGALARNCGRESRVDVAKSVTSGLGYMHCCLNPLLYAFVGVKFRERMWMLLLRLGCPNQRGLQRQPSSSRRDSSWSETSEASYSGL
Protocol: Unless otherwise noted, all reagents used are available from commercial sources (e.g., Sigma). Test compounds are diluted in DMSO to a concentration that is 40-times the intended final assay concentration; 5 μL are transferred to each well of a 96-well flat-bottomed polypropylene plate (e.g., from Greiner, Inc.). The cells were resuspended in assay buffer (25 mM Hepes, 80 mM NaCl, 1 mM CaCl2, 5 mM MgCl2, 0.2% bovine serum albumin, pH 7.1, stored at 4° C.) at 5 million cells per mL; 100 μL of this cell suspension is then transferred to each well of a 96-well plate containing the diluted test compounds. ^125I-labelled chemokine (purchased from commercial sources, e.g., Amersham, PE Life Sciences) is diluted in assay buffer to a concentration of approximately 60 pM; 100 μL of this chemokine solution is transferred to each well of a 96-well plate containing compounds and cell suspension. The plates are sealed with commercially available foil plate seals (e.g., from E&K Scientific), and stored at 4° C. for 2 to 4 h, shaking gently. […] The plates are counted on a scintillation counter, such as a Packard TopCount. […] Data were analyzed using commercially available software (e.g., Excel from Microsoft, Prism from GraphPad Software Inc.).

CXCR3 [2] = biological target: T1, CXCR3; experiment: HWB receptor occupancy (500 ng/ml ITAC); assay type: cell-based

IC50 (CXCR3 [1]; 50% human plasma, primary, activated human lymphocytes, read-out: [125I]-IP-10 Binding IC50 (nM) 50% Plasma): 49 ± 22 nM | IC50 (CXCR3 [1]; buffer, read-out: [125I]-IP-10 Binding IC50 (nM) Buffer): 5 ± 2 nM | IC50 (CXCR3 [2]): 72 ± 45 nM
SMILES: CCOc1ccc(-n2c([C@@H](C)N(Cc3cccnc3)C(=O)Cc3ccc(OC(F)(F)F)cc3)nc3ncccc3c2=O)cc1 [AMG 487, reference compound]
